According to US20230112865A1, “RIP1 INHIBITORY COMPOUNDS AND METHODS FOR MAKING AND USING THE SAME” (Rigel Pharmaceuticals, Inc., priority 2019, published 2023):
pIC50: −log10 of the molar value.

By UniProt entry, the sequences of proteins in these tests, tags left out.
UniProt Q13546, whole entry, species assumed: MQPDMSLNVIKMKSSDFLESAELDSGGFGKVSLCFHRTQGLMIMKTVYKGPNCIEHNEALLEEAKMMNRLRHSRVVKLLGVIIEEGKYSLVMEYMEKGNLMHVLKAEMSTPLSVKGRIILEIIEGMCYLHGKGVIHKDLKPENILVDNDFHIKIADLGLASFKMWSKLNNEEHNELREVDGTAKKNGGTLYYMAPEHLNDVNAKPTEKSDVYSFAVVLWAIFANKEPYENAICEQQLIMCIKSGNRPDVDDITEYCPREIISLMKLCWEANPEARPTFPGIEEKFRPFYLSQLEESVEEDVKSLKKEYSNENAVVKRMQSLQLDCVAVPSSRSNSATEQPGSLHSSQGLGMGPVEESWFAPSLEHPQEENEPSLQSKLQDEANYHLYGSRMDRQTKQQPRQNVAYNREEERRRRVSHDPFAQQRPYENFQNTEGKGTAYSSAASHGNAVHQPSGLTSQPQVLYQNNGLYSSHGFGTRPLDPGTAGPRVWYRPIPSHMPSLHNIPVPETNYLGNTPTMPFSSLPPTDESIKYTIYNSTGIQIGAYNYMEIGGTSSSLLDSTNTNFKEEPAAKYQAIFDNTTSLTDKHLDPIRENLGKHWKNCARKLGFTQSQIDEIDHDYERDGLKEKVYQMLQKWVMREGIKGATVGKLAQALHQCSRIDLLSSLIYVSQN

Target: RIPK1 (Homo sapiens, UniProt Q13546)
Assay: biochemical

## CN1C(=O)[C@@H](NC(=O)n2cc(Cc3ccc(F)cc3F)cn2)COc2ccc(C#CC(C)(C)CO)cc21 [Compound I-239, (S)-4-(2,4-Difluorobenzyl)-N-(7-(4-hydroxy-3,3-dimethylbut-1-yn-1-yl)-5-methyl-4-oxo-2,3,4,5-tetrahydrobenzo[b][1,4]oxazepin-3-yl)-1H-pyrazole-1-carboxamide]
  pIC50: 7.36
